How the values were obtained:
mPD-L1 = mPD-L1 (Mus musculus, UniProt Q9EP73); assay: SPR (Biacore T200), immobilized purified protein, […] model
mPD-1 = mPD-1 (Mus musculus, UniProt Q02242); assay: as above

Amino acid sequences for entries named in this document (tags omitted). Residues count along the entry.
UniProt Q9EP73, 19-290 limits assumed: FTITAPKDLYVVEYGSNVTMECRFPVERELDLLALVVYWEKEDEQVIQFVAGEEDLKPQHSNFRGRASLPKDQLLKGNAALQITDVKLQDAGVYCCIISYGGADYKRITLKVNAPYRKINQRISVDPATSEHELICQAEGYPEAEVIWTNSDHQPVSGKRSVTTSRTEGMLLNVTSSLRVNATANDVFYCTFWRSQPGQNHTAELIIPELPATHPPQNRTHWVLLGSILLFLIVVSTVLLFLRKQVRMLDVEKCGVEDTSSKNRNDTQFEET
UniProt Q02242, 25-169 limits assumed: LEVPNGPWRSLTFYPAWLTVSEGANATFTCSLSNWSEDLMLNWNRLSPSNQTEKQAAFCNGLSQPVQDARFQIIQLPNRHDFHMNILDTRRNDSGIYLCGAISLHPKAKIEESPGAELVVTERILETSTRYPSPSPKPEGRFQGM

Kd (mPD-L1): 125 nM | Kd (mPD-1): 41.6 nM
Compound: COc1cc(OCc2cccc(-c3ccccc3)c2C)cc(OC)c1CN1CCCCC1C(=O)O (centres unmarked)
